The chains behind the UniProt entries cited, without tags or fusion partners. Residues count along the entry.
UniProt P09874, whole entry: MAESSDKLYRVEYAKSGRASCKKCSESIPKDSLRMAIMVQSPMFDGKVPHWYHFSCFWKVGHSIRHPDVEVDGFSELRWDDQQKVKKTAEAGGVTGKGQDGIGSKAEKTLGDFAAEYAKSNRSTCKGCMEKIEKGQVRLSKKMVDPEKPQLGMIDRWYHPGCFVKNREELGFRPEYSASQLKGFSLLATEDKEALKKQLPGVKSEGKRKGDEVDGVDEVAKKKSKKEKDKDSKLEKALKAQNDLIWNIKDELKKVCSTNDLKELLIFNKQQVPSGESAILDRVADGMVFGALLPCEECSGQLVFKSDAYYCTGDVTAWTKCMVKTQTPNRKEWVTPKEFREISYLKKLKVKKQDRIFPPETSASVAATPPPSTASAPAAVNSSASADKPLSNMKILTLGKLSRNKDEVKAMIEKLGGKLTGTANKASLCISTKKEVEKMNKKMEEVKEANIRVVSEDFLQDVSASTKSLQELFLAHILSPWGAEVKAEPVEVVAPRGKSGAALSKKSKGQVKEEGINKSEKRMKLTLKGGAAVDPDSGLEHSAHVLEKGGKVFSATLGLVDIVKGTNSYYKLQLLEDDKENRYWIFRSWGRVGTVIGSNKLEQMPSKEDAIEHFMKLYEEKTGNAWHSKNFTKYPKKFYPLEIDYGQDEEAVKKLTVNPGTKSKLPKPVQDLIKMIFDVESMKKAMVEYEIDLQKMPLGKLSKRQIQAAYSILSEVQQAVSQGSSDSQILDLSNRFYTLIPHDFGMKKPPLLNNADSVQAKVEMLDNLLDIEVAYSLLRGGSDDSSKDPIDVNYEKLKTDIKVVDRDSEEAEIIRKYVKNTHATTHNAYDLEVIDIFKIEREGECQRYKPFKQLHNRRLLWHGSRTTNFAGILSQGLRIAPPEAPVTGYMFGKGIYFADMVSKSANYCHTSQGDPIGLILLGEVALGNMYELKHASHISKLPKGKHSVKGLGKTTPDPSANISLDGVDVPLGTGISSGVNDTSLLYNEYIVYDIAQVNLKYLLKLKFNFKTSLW
UniProt Q9H2K2, 959-1164: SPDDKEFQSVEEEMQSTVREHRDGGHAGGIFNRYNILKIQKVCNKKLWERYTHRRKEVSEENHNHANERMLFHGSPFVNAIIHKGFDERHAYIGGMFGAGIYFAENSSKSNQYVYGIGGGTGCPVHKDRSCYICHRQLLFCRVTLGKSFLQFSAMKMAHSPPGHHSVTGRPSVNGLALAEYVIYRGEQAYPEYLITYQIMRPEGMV
UniProt O95271, 1112-1317: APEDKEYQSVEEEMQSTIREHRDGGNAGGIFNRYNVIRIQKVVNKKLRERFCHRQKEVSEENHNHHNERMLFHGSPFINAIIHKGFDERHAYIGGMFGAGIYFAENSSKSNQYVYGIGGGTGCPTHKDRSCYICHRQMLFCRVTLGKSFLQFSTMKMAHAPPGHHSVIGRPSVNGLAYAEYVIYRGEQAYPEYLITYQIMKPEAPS

According to paper PMC5934274 (Journal of medicinal chemistry, 2016):

How the values were obtained:
Format in all cases: biochemical
[1] = molecular target: PARP1 (Homo sapiens, UniProt P09874); assay: In vitro ADP-ribosylation assay, PARP1; settings: PARP1 FL (full length); NAD+ at or below KM
[2] = molecular target: TNKS2 (Homo sapiens, UniProt Q9H2K2); assay: In vitro ADP-ribosylation assay, TNKS2; settings: read-out: KM NAD+; TNKS2 ART
[3] = molecular target: TNKS1 (Homo sapiens, UniProt O95271); assay: In vitro ADP-ribosylation assay, TNKS1; settings: read-out: KM NAD+; TNKS1 ART
[4] = molecular target: T1, PARP16 (Homo sapiens, UniProt Q8N5Y8); assay: In vitro ADP-ribosylation assay, PARP16; settings: PARP16 FL (full length)
T1 sequence (Q8N5Y8 1-322): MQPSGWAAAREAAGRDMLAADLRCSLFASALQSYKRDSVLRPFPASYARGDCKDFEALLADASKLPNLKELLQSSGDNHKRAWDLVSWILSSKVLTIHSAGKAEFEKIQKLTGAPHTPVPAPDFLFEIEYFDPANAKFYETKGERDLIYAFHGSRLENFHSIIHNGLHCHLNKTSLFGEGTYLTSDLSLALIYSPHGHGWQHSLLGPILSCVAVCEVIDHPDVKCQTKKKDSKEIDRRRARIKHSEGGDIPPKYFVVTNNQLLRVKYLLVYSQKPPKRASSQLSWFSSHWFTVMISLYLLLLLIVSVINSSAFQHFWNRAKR

[5] = molecular target: T2, PARP15 (Homo sapiens, UniProt Q460N3); assay: In vitro ADP-ribosylation assay, PARP15; settings: PARP15 ART
T2 sequence (Q460N3 1-678): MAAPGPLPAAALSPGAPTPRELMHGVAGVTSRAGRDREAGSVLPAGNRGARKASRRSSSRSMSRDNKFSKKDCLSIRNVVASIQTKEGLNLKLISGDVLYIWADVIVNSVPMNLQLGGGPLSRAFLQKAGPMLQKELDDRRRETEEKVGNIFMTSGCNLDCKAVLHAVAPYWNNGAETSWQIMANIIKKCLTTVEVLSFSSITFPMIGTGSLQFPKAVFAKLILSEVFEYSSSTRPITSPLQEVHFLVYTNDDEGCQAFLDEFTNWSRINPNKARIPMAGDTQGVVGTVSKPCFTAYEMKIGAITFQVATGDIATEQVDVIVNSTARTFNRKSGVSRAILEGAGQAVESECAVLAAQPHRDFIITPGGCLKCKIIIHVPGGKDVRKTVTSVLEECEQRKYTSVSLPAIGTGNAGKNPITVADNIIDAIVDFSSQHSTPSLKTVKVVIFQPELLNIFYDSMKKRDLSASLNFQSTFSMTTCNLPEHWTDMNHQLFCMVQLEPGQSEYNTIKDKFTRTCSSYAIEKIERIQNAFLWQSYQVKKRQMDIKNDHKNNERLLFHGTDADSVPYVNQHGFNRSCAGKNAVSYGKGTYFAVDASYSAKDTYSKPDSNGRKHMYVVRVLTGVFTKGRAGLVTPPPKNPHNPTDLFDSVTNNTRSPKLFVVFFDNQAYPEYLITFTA

Q: Which pIC50 [1] does the source give for `O=C(COc1cccc2c(=O)[nH]ccc12)c1ccccc1` [1 (UPF1069)] here?
A: 6.84±0.68

Q: `NC(=O)c1ccc[n+]([C@@H]2O[C@H](COP(=O)([O-])OP(=O)(O)OC[C@H]3O[C@@H](n4cnc5c(N)ncnc54)[C@H](O)[C@@H]3O)[C@@H](O)[C@H]2O)c1` [NAD+, nicotinamide adenine dinucleotide] was tested. Which Km [2] did it give?
A: 251 ± 56 µM

Q: What about the Km [3] of the same compound?
A: 31 ± 4 µM

Q: Which results are given for `C[C@]1(c2nc3c(C(N)=O)cccc3[nH]2)CCCN1` [Veliparib]?
A: IC50 [4]: n.i.; pIC50 [4]: n.i.; IC50 [5]: n.i.; pIC50 [5]: n.i.
